Assays:
CAL33 cells = assay: BrdU incorporation in CAL33 cells; format: cell-based, human; settings: CAL33, 10 μM, 72 h
Method: FIGS. 12A and 12B show representative images of BrdU staining (FIG. 12A) and quantification of BrdU positive (BrdU+) cells (FIG. 12B) in CAL33 cells treated with or without 10 μM of PU7-1 for 72 h. ****p<0.0001. FIGS. 12C and 12D show representative images (FIG. 12C) and normalized absorbance at 600 nm (FIG. 12D) of colony-formation assays in BT474, CAL33, DU145, SK-NDZ treated with or without 10 μM of PU7-1 for 2 weeks.
Transcription factor FOXM1 is a master regulator of the cell cycle. It tightly controls the cell cycle progression and maintains sustained cell proliferation via its various downstream target genes crucial for cell cycle regulation 16. To explore the functional consequences of PU7-1-mediated FOXM1 degradation, a transcriptome analysis was performed. CAL33 cells were treated with or without 10 μM of PU7-1 for 96 h and total RNA were extracted for RNAseq analysis. We identified ˜5000 differentially expressed genes (DEGs) in DMSO-treated versus PU7-1-treated cells (FIG. 22). […] This effect was further validated in CAL33 cells by quantitative real-time PCR (FIG. 4H).
Cells were incubated with 10 μg/ml BrdU (BD, 51-2420KC) for 3 h and fixed with cold 70% ethanol. DNA was denatured in 1.5N HCL for 30 min. Cells were blocked with 1% BSA in PBS, and incubated with anti-BrdU antibody (Roche, clone #BMC9318) at 4° C. overnight. […]

Amino acid sequences for entries named in this document (tags omitted).
UniProt Q93009, whole entry: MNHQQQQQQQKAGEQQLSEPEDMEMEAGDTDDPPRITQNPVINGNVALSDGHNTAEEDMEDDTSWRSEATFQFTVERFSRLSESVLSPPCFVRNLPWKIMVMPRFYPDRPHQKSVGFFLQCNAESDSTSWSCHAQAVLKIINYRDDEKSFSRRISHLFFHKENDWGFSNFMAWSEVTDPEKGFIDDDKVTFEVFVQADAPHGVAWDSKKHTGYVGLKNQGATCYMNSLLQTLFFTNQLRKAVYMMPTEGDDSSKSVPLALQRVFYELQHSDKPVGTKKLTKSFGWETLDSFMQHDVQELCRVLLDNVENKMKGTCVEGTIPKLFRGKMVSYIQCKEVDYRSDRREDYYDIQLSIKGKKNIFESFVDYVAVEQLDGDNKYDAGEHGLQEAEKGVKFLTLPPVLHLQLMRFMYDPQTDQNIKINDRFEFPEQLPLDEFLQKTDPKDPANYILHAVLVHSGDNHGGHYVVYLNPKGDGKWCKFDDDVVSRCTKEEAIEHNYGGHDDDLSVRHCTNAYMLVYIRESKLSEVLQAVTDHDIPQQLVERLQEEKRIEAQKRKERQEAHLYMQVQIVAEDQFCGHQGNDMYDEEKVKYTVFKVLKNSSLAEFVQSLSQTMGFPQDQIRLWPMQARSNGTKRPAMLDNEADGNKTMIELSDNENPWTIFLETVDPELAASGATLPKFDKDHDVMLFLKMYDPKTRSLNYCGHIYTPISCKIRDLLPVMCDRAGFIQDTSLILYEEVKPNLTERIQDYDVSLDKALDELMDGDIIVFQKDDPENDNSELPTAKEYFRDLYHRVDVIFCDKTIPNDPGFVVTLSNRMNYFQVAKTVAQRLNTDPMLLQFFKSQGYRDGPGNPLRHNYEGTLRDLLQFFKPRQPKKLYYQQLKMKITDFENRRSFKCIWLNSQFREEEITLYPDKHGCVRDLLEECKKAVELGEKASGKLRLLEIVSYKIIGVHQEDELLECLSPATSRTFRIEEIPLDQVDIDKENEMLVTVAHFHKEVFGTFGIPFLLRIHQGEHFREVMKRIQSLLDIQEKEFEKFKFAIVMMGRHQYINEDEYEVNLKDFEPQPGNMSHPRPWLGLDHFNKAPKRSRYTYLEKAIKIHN

FOXM1 = FOXM1 protein levels by Western blot in TNBC cell lines; format: cell-based, human; settings: MDA-MB-468, MDA-MB-231 and BT549, 10 μM, 96 h
Method: FIGS. 5B and 5C show representative images (FIG. 5B) and normalized absorbance at 600 nm (FIG. 5C) of colony-formation assays in MDA-MB468 and BT549 treated with or without 10 μM of PU7-1 for 2 weeks. […] FIGS. 5F and 5G show representative images of MDA-MB-468 tumors (FIG. 5F) and quantification of tumor weight (G) in nude mice xenograft model. **p<0.01.
Given the high expression of FOXM1 in triple-negative breast cancer, the effects of the USP7 degrader PU7-1 were next investigated in TNBC cells. First, three TNBC cell lines MDA-MB-468, MDA-MB-231 and BT549 were treated with 10 μM of PU7-1 for 96 h. The protein levels of FOXM1 were determined by Western blot. […] Next, the effects of PU7-1 were examined on TNBC cell proliferation. MDA-MB468 and BT549 were incubated in the complete growth medium with or without 10 μM of PU7-1 for two weeks. […] Furthermore, the dye bound to the cells was solubilized with 30% acetic acid and measured by the absorbance at 600 nm. […] The IC50 of PU7-1 in TNBC cells were then determined using a luminescent cell viability assay. […]
Cells were lysed in FLAG lysis buffer (50 mM Tris-HCl (pH 7.3), 137 mM NaCl, 10 mM NaF, 0.5 mM EDTA, 1% Triton X-100, 0.2% Sarkosyl, 10% glycerol) freshly supplemented with protease inhibitor cocktail. Protein concentration was determined by the Bio-Rad protein assay. […]

USP7 = USP7 (Homo sapiens, UniProt Q93009); assay: USP7 degradation in CRBN knockout CAL33 cells; format: cell-based; settings: CRBN KO CAL33 cells, 2.5 μM, 72 h
Method: To investigate the mechanism of action of PU7-1, CRBN knockout (KO) CAL33 cell line was generated using CRISPR-Cas9 technology. Control and CRBN KO cells were treated with 2.5 μM of PU7-1 for 72 h and then the expression levels of USP7 and CRBN proteins were detected by western blot analysis. CRBN protein was undetectable in the KO cells (FIG. 3H). […] CAL33 cells were first treated with 5 μM of PU7-1 for 48 h to degrade the USP7 proteins, and then treated with 5 μM of MLN4924, 25 μM of Chloroquine (CLQ) or 5 μM of MG132 for additional 24 h.
For CRBN knockout cell line, the plenti-px330-CRBN-T1-pGK-Pur construct was purchased from Addgene. HEK293 cells were transiently transfected with plenti-px330-CRBN-T1-pGK-Pur, VSVG and Δ8.9 constructs for lentivirus packaging. Viruses were harvested at 48 h post-transfection. CAL33 cells were transfected with CAS9 constructs and infected with lentiviral particles, and then selected with 1 μg/ml puromycin. CRBN knockout clones were identified by western blot using CRBN specific antibody.

USP7 degradation under CRBN depletion (USP7): completely abrogated
SMILES: O=C1CCC(N2Cc3c(CCCCCN4CCN(CCC(=O)Nc5ccc6c(=O)n(CC7(O)CCN(C(=O)C(CCCNC(=O)c8ccc9c(Cl)c%10c(nc9c8)CCCC%10)Cc8ccccc8)CC7)cnc6c5)CC4)cccc3C2=O)C(=O)N1 (stereo not drawn)
percentage of BrdU incorporation (CAL33 cells): significantly lower percentage
FOXM1 protein levels in TNBC cells (FOXM1): dramatically decreased

Source: patent publication US20240408094A1, “INHIBITION OF USP7 INDUCES P53-INDEPENDENT TUMOR GROWTH SUPPRESSION IN TRIPLE-NEGATIVE BREAST CANCERS BY DESTABILIZING FOXM1” (The Trustees of Columbia University in the City of New York, priority 2023, published 2024)
